Experimental data: patent US20240034729A9, “HETEROCYCLIC COMPOUND, INTERMEDIATE, PREPARATION METHOD THEREFOR AND APPLICATION THEREOF” (WUHAN LL SCIENCE AND TECHNOLOGY DEVELOPMENT CO., LTD., priority 2018, published 2024)

Protein sequences, listed by entry. Tags and fused reporters are not part of them. Lines headed by an entry give the natural chain unless they say otherwise; changes in a name come on top.
UniProt P56373, whole entry: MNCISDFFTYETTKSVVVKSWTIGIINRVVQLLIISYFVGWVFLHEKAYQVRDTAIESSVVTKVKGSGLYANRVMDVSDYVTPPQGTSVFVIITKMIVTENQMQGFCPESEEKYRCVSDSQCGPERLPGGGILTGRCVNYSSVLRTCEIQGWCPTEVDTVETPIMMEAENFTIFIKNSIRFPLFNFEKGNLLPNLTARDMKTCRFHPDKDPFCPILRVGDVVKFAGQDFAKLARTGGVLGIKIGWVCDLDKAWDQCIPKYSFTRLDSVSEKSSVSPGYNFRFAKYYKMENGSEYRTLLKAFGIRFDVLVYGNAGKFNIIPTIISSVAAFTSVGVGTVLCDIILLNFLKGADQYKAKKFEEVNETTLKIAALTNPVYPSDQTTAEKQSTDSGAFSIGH
UniProt Q9UBL9, whole entry: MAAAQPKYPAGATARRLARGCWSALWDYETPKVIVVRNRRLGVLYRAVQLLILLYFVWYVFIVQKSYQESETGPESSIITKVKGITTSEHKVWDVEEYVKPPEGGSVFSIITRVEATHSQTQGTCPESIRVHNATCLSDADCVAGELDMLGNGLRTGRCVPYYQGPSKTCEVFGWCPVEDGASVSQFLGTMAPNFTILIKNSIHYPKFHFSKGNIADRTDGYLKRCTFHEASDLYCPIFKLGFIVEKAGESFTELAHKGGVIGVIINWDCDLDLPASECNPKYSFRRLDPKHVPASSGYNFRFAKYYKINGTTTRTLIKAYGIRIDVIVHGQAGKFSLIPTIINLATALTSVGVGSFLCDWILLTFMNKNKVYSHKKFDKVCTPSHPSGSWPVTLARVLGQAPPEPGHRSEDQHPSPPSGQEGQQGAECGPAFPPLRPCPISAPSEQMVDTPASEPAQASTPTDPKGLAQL

Columns and labels:
[1] = In vitro metabolic stability, guinea pig liver microsome; settings: 1 mg/mL liver microsome protein, 37° C.; NA = essentially not metabolized
[2] = biological target: hP2X3 (human purinergic P2X receptor subtype 3) (Homo sapiens (Human), UniProt P56373); assay: FLIPR calcium assay, hP2X3 expressed in HEK293 cells; type: cell-based; settings: read-out: P2X3 IC50; HEK293 cells expressing hP2X3, agonist BZ-ATP 2.5 μM; class symbols
[3] = In vitro metabolic stability, human liver microsome; type: in vitro ADME; settings: 1 mg/mL liver microsome protein, 37° C.; NA = essentially not metabolized
Procedure: (§1) The in vitro metabolic stability of the compounds disclosed herein was determined through incubation of liver microsomes of various species. […] At each time point, 100 μL of the reaction mixture was added into a centrifuge tube containing 400 μL of internal standard working solution (containing a 200 ng/mL solution of dexamethasone, diclofenac, tolbutamide and labetalol in acetonitrile) precooled at 0° C. so as to terminate the reaction, and the mixture was then centrifuged at 10,000 g for 10 min at 4° C. The supernatant was collected for LC-MS assay so as to obtain the values of in vitro metabolic half-life of the test compounds in liver microsomes of various species.

[4] = biological target: hP2X2/3 (heterodimeric receptors formed by human purinergic P2X receptors subtype 2 and subtype 3) (Homo sapiens (Human), UniProt P56373+Q9UBL9); assay: FLIPR calcium assay, hP2X2/3 expressed in HEK293 cells (P2X2/3 receptor selectivity); type: cell-based
[5] = In vitro metabolic stability, rat liver microsome; type: in vitro ADME; settings: 1 mg/mL liver microsome protein, 37° C.; NA = essentially not metabolized
Procedure: as §1

[6] = tested on: Male Dunkin Hartley guinea pigs; assay: Citric acid only cough model; set-up: Mean cough latency: unit not given beside the values; settings: for Mean number of coughs: 17.5% citric acid
HepG2 cells = assay: In vitro cytotoxicity assay, CCK-8 method; settings: read-out: HepG2 CC50, 48 h
Male SD rats = assay: Two-bottle dysgeusia test (quinine water vs normal water); type: in vivo, rat; settings: 20 mg/kg
[7] = before administration (baseline of the group)

COC(=O)N1CCO[C@@H](Cc2c(-c3c(F)cc(NC(C)=O)cc3F)nc3cc(Cl)ccn23)C1
T1/2 in guinea pig liver microsome [1]: 2.967 h | IC50 [2]: < 0.01 µM | T1/2 in human liver microsome [3]: 3.4438 h | Folds of selectivity ([4]; (IC50 for P2X2/3)/(IC50 for P2X3), class symbols): A (A: folds of selectivity >1000) | IC50 ([4]; read-out: IC50 for P2X2/3 receptors, HEK293 cells expressing hP2X2/3, agonist BZ-ATP 5 μM, unit inferred): > 60 µM | T1/2 in rat liver microsome [5]: 0.875 h | Cough inhibition rate Vs Baseline (%) ([6]; 30 mg/kg): 66.8% | Cough inhibition rate Vs Vehicle (%) ([6]; 30 mg/kg): 62.7% | Number of coughs and cough latency (in words) ([6]; 30 mg/kg, compared with the blank vehicle or the condition before administration): can effectively reduce the number of coughs and prolong the cough latency | Mean cough latency ([6]; after administration, 30 mg/kg): 229.00 | Mean number of coughs ([6]; after administration, 30 mg/kg): 6.42 | Mean cough latency [6, 7]: 75.92 | Mean number of coughs [6, 7]: 19.33 | CC50 (HepG2 cells): > 100 µM | Ratio of quinine/water intake (in words) (Male SD rats; compared with the blank vehicle): almost unaffected | Quinine/tap water* 100% (Male SD rats; Table 8, rats, single intraperitoneal injection, water intake within 15 min, 0.3 mM quinine): 4.54%
